# From US7001587B2, “Measurement of protein synthesis rates in humans and experimental systems by use of isotopically labeled water” (The Regents of the University of California, priority 2001, dated 2006)
# Test: In vitro ^2H label exchange / label stability studies
# Assay type: physicochemical
# Settings: incubation in 70% ^2H2O for 24 hr at room temperature, then hydrolysis to free AA
substance,measurement,value
human serum albumin: an unlabeled protein (human serum albumin),^2H incorporation in derivatized AA,no ^2H incorporation was observed
